These results are taken from patent US4450165A, “Dihydropyridine compounds” (Yoshitomi Pharmaceutical Industries, Ltd., priority 1981, dated 1984).

This experiment relates to vertebral blood flow (right vertebral artery). The experiment can be described thus: Effect on vertebral blood flow. Type of experiment: in vivo, mongrel dogs. The conditions noted are these: anesthetized dogs. Here is the method:
Under the artificial ventilation, the right vertebral artery was perfused with the arterial blood from the left carotid artery through a short bypass. The perfused flow was measured by means of an electromagnetic flow-meter. The test compound was dissolved in an aqueous solution containing 0.1% dimethyl sulfoxide and 0.01% polyoxyethylene hydrogenated castor oil (cremophor EL®), and injected into the afferent tube. […] The duration was measured as the time for which the half maximum response remained.

On to `COc1ccc(Cc2nccc3cc(OC)c(OC)cc23)cc1OC` [Papaverine], for which the “Duration (time for which the half maximum response remained)” value turned out to be 0.4 min.
